According to article PMC2096555 (Purinergic Signalling, 2005):

Target: T1, rat NTPDase3 (Rattus norvegicus, UniProt A6I415)
T1 sequence (A6I415 1-529): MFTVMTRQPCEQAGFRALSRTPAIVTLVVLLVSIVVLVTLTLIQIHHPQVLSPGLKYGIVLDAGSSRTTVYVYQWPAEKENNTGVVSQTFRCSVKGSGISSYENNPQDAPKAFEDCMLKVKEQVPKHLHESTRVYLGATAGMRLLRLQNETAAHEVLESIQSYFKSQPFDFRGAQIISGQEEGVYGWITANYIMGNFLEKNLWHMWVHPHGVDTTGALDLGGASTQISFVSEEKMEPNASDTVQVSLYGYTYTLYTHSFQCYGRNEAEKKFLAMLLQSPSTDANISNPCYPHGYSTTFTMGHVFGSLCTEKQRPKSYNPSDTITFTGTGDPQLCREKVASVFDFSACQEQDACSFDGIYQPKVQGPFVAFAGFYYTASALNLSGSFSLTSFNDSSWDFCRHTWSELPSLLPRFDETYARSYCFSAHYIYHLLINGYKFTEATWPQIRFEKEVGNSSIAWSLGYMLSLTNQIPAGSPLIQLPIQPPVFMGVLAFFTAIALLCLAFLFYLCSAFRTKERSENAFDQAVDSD
Format: biochemical
Conditions: ratio of Ki values

SMILES: Nc1c(S(=O)(=O)O)cc(Nc2ccc(Nc3nc(Cl)nc(Nc4cccc(S(=O)(=O)O)c4)n3)c(S(=O)(=O)O)c2)c2c1C(=O)c1ccccc1C2=O [RB2, reactive blue 2]
- factor by which Ki is lower for NTPDase3 than for NTPDase1 and NTPDase2: 20 fold
